Results from patent US8101373B2, “β-galactosidase donor fragments” (Discoverx Corporation, priority 2007, dated 2012).

Sequences of proteins named here, by UniProt entry; tags and fusion partners are left off.
UniProt P30872, whole entry, species assumed: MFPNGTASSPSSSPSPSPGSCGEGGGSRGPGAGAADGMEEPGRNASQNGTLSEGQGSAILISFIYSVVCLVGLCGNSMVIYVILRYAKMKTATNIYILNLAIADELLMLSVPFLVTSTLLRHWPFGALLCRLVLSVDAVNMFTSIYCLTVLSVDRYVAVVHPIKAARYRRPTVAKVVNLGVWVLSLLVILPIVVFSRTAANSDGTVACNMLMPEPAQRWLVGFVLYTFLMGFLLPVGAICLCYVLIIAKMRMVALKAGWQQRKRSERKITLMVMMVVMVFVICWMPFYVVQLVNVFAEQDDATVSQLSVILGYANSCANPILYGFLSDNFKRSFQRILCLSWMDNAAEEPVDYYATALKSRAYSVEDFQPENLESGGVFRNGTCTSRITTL
UniProt P31391, whole entry, species assumed: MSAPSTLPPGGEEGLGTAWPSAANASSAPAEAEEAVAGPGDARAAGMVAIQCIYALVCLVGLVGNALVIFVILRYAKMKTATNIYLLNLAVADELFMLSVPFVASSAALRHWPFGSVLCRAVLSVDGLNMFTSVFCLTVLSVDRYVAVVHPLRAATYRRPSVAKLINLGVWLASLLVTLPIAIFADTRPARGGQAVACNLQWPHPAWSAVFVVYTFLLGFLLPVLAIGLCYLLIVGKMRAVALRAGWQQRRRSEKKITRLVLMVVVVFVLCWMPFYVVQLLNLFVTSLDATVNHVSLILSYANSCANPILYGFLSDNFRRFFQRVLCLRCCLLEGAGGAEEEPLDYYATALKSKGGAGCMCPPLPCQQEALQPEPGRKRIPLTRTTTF

Assays:
SSTR1 = target: T1, SSTR1 (Homo sapiens, UniProt P30872); test: PathHunter β-arrestin2-EA / GPCR-ED enzyme fragment complementation, SSTR1-ED fusion; type: cell-based; details: saturating ligand
T1 construct: The entire GPCR coding regions were cloned downstream of the CMV promoter and upstream of the ED; expressed in transfected cells; host or cells: HEK293 or CHOK1 cells, retroviral infection (pLNCX2)
Source text: (§1) The following are the directions for performing the determinations of the response to inducing agents and comparing the prior art ED (pK1) to an ED of the subject invention (pK2):
(§2) The cells used were HEK293 and CHOK1 cells. Following substantially the procedures described in U.S. patent application Ser. No. 10/229,247, filed Aug. 27, 2002, and U.S. patent application Ser. No. 11/132,764 (Publication no. 2005/0287522), filed May 18, 2005, whose disclosures are specifically incorporated by reference, each of the cell lines was infected with retroviral constructs. The viral plasmid was the PLNCX2 vector from Clontech. The plasmid includes sufficient retroviral sequences to enable viral production in the appropriate packaging cell lines. The plasmid also includes the neomycin antibiotic resistance gene and a CMV promoter that is used to drive expression of the target ED fusion. […] The ED is fused at the intracellular terminus, i.e., C-terminus of the proteins.
(§3) Preparation of Detection Reagents—The detection reagents must be prepared as a working solution prior to use, and once prepared are stable for at least 24 hours at room temperature with no impact on assay performance. The detection reagents consist of the substrate and co-factors for chemiluminescence signal detection, as well as the reagents necessary for selective cell permeabilization. Working solution is prepared by combining PathHunter™ Cell Assay Buffer (DiscoveRx, Inc., Fremont, Calif.), Galacton Star® and Emerald II® reagent […]. reagents (ABI, Bedford, Mass.) at a ratio of 19:1:5. Sufficient reagent is provided in each kit to perform the indicated number of assays in a 384-well, full-volume microplate assuming an addition of 12 μl of detection reagent per well or in a 96-well, full-volume microplate assuming an addition of 50 μl of detection reagent per well.
(§4) The table below outlines the procedure for using the PathHunter™ Detection Kit to monitor protein translocation in a either a parental PathHunter cell line transfected with a target protein of interest, or one of the dedicated PathHunter cell lines available from DiscoveRx for monitoring specific protein translocation events (i.e., glucocorticoid receptor).
(§5) The first column indicates the receptor. The second column indicates whether PK1 or PK2 was employed as the ED fusion partner. The basal activity indicates the signal in the absence of stimulation. The fourth column indicates the fold induction for each of the constructs, where saturating conditions of the ligand were employed. The fifth column indicates the ligand that was employed.

SSTR4 = target: T2, SSTR4 (Homo sapiens, UniProt P31391); test: PathHunter β-arrestin2-EA / GPCR-ED enzyme fragment complementation, SSTR4-ED fusion; type: cell-based; details: saturating ligand
T2 construct: The entire GPCR coding regions were cloned downstream of the CMV promoter and upstream of the ED; expressed in transfected cells; host or cells: HEK293 or CHOK1 cells, retroviral infection (pLNCX2)
Source text: as §1, §2, §3, §4, §5

Row | Substance | Fold induct. (SSTR1; SSTR1 fused to PK1 ED) [fold] | Fold induct. (SSTR1; SSTR1 fused to PK2 ED) [fold] | Fold induct. (SSTR4; SSTR4 fused to PK1 ED) [fold] | Fold induct. (SSTR4; SSTR4 fused to PK2 ED) [fold]
1 | [TYR1] Somatostatin 14 [TYR-SRIF14] | 1 | 2.2 | – | –
2 | Somatostatin-28 | 1.2 | 1.3 | 1.3 | 1.6
3 | Somatostatin-14 | 1 | 1.5 | 1.5 | 1.6
